Measurements from publication PMC4423819 (Nature, 2014).

Tested on: endogenous MEIS2 in M059J cells
Assay: Steady-state endogenous MEIS2 levels in M059J cells
Assay type: cell-based, human
Conditions: 4 h, vs DMSO control

`Nc1cccc2c1CN(C1CCC(=O)NC1=O)C2=O` (stereo not shown) [lenalidomide] was tested, and the “Increase of endogenous MEIS2 steady-state level” value was “up to 2.5 fold”.
